# Measured affinities in a library of Ab-14 heavy chain variants

The measurements come from Engelhart et al. 2022 (doi:10.1038/s41597-022-01779-4) through the FLAb antibody collection.

Target: peptide PDVDLGDISGINAS, taken from heptad repeat 2 (HR2) of SARS-CoV-2 spike.

Parent scFv Ab-14: VH joined to VL by the linker GGGGSGGGGSGGGGS. Changes lie in the heavy chain CDRs alone.
VH: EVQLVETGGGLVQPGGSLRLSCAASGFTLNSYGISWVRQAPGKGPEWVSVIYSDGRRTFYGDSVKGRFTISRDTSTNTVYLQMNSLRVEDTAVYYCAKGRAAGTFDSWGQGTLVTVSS
VL: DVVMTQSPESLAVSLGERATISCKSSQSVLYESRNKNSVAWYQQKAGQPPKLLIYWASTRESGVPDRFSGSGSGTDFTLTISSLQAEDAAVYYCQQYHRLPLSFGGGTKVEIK

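Phage display of a naive human antibody library on the peptide gave the parent. The library (AAYL49) carries one to three amino acid substitutions per variant, with no insertions or deletions. Affinity was read by AlphaSeq, a pooled yeast mating assay with surface-displayed partners. The frequency of each diploid, read from paired DNA barcodes, reflects how well the two displayed proteins bind. Each replicate has its own calibration line, from reference interactions of the BCL2 family. Mating was done three times.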

Changes read parent residue, position, new residue, counted from the first residue of the VH shown.
Numbers give log10(Kd / nM), so 0 is 1 nM and 3 is 1 µM. Smaller is tighter.
Replicates are averaged; those with no signal do not enter the mean.
An entry "no signal" has no value in the source: the pair was not observed among the diploids in any replicate. This suggests poor binding but is not conclusive.

| changes | log10 Kd (nM), mean | detected |
|---|---|---|
| V50S+S63G+G99A | no signal | 0/3 |
| I34E+Y60G+A102L | 3.85 | 2/3 |
| I34D+G103R+S107L | no signal | 0/3 |
| R57K+K65D+A102K | 5.26 | 1/3 |
| N30W+Y52L+Y60W | no signal | 0/3 |
| V50S+G55T | no signal | 0/3 |
| I34S+S35L | no signal | 0/3 |
| D54Y+S63F+A101G | no signal | 0/3 |
| I34N+S53Q+R100Y | no signal | 0/3 |
| G26M+D54T+S107E | 4.79 | 2/3 |
| G33W+Y52C+S53P | 4.56 | 1/3 |
| T58Q+A101H+S107T | no signal | 0/3 |
| I34T+F59R | 4.69 | 2/3 |
| Y52A+V64T+T104Q | no signal | 0/3 |
| Y52A+R57T+D106E | no signal | 0/3 |
| I34P+I51Q+K65C | 4.78 | 1/3 |
| S31L+Y52N+G61P | no signal | 0/3 |
| G26K+S63R+S107Y | 3.60 | 3/3 |
| T28Y+S35K | 4.51 | 3/3 |
| T28V+Y60H+F105G | 3.24 | 3/3 |
| L29N+S63E+V64N | 4.20 | 3/3 |
| F27M+S63W+V64C | 4.21 | 2/3 |
| R56V+Y60V+S107V | 1.84 | 3/3 |
| F27Q+T58C+V64H | no signal | 0/3 |
| G33P+I51F+D106G | no signal | 0/3 |
| N30P+Y32C+A101F | 3.12 | 3/3 |
| G26M+Y52K+D62Y | no signal | 0/3 |
| I51L+T58M+A102N | 4.93 | 3/3 |
| T28I+S53Y+A101R | no signal | 0/3 |
| T28S+K65V | 0.58 | 3/3 |
| Y32L+A102N+S107A | 1.48 | 3/3 |
| Y32T+F59M+R100M | 4.64 | 2/3 |
| G26K+G33Q+F59C | 3.18 | 1/3 |
| T28K+I51A+Y60G | 3.85 | 2/3 |
| N30D+G103P+T104I | 0.67 | 3/3 |
| T28Q+N30H+Y32G | no signal | 0/3 |
| I34T+R57M+G99V | 5.99 | 1/3 |
| T28P+S53G+D54I | 5.11 | 1/3 |
| D62Y+T104C | no signal | 0/3 |
| F27Q+L29A+G103K | 4.78 | 3/3 |
| R57H+F59D+Y60R | no signal | 0/3 |
| V50P+I51L+A102H | no signal | 0/3 |
| D54T+S63V+F105N | no signal | 0/3 |
| Y52F+S53P+G55H | no signal | 0/3 |
| K65R+G99H+D106W | 2.34 | 3/3 |
| I51F+D54W+R57G | no signal | 0/3 |
| G99S+T104V+F105S | no signal | 0/3 |
| S31V+F59G+G103W | 4.55 | 3/3 |
| R57M+G99R+A101M | 4.25 | 1/3 |
| V50E+Y52E+K65F | no signal | 0/3 |
| I34R+T104W | 4.54 | 3/3 |
| R56K+T58A+F59I | 3.08 | 2/3 |
| F27H+Y32T+K65E | 4.91 | 1/3 |
| S35C+V64F+A101Q | 4.36 | 1/3 |
| G55W+A101H+T104W | no signal | 0/3 |
| F27E+I51F+D54W | no signal | 0/3 |
| Y32G+I51R+G55I | no signal | 0/3 |
| L29Y+I51N+D54S | 3.95 | 1/3 |
| S35D+I51Q+A101Q | 3.88 | 1/3 |
| D62E+G103F+F105G | 3.33 | 2/3 |
| R57F+S63M+S107M | no signal | 0/3 |
| D54E+R56S+D62I | 4.79 | 2/3 |
| K65E+R100L+A101Q | 1.15 | 3/3 |
| L29M+V50I+D62Q | no signal | 0/3 |
| I51R+F59M+S63Y | no signal | 0/3 |
| I51A+D62R+R100H | 4.70 | 1/3 |
| T58N+T104G+S107C | 1.74 | 3/3 |
| T28G+L29D+S35Q | no signal | 0/3 |
| S35F+I51M+T58N | 3.42 | 2/3 |
| I34M+G55M+V64M | 3.19 | 1/3 |
| S35F+R100H+A101T | no signal | 0/3 |
| R57L+T58I+A101N | 4.54 | 2/3 |
| Y52Q+R56M+D62K | no signal | 0/3 |
| G55N+D62C+A101P | no signal | 0/3 |
| S53F+R57L+F105T | no signal | 0/3 |
| G26Q+K65A+G99A | 2.94 | 3/3 |

Excerpt, the final 11 entries:

| changes | log10 Kd (nM), mean | detected |
|---|---|---|
| I51A+D62R+R100H | 4.70 | 1/3 |
| T58N+T104G+S107C | 1.74 | 3/3 |
| T28G+L29D+S35Q | no signal | 0/3 |
| S35F+I51M+T58N | 3.42 | 2/3 |
| I34M+G55M+V64M | 3.19 | 1/3 |
| S35F+R100H+A101T | no signal | 0/3 |
| R57L+T58I+A101N | 4.54 | 2/3 |
| Y52Q+R56M+D62K | no signal | 0/3 |
| G55N+D62C+A101P | no signal | 0/3 |
| S53F+R57L+F105T | no signal | 0/3 |
| G26Q+K65A+G99A | 2.94 | 3/3 |

Parent in this assay: reference entry 0.65, copy in this library 4.11 (one replicate of three).
Background: pairings of library AAYL49 with three empty control strains gave a value in 15% of cases (median 4.06, 5th percentile 2.83). Values in that range, when seen in few replicates, are hard to tell from nonspecific mating.